1 compound from patent publication US6723235B2, “Apparatus for screening compound libraries” (priority 1998, dated 2004) can be followed below.

In this experiment the target is human α-thrombin (Homo sapiens, UniProt P00734). In words: FC-MS screening on immobilized human α-thrombin column.

As for `N=C(N)NCCC[C@H](NC(=O)[C@@H]1CCCN1C(=O)[C@H](N)Cc1ccccc1)C(=O)O`, the “maximum intensity of indicator relative to infusion concentration (roll-up effect)” value (1 μM fPR with 1 μM fPR-chloromethyl ketone, column approximately 50 pmol active protein, FIG. 16B) is listed as “approximately 3 times”. Besides, the “V−V0” value (fresh column, void marker and peptide alone, 1 μM each) is “approximately twice the value measured from the mixture”.
